PubChem BioAssay (Tox21)
This is a selection; strong and weak results do not stand in their true shares. Records with an inconclusive call do not appear. Calls of active or inactive are those of the source. The call rests on the fitted dose curve.

Sequences of proteins named here, by UniProt entry; tags and fusion partners are left off. A change or cut given only in a name is not applied to a line headed by its entry.
UniProt P11229: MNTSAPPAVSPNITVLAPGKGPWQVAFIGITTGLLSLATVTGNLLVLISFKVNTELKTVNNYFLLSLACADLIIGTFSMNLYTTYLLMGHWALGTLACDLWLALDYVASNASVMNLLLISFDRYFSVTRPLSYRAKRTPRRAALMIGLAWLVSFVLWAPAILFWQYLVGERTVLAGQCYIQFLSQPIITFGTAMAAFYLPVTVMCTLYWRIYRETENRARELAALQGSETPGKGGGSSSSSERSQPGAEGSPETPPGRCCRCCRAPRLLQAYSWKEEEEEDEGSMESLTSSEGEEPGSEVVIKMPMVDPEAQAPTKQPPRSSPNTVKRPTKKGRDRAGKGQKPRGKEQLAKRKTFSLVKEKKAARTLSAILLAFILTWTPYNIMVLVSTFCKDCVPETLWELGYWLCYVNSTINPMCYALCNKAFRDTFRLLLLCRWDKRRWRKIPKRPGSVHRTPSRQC

Tests used:
[1] = p53 small molecule agonists, cell-based qHTS assay: qHTS cell viability counter screen (AID 1963581); further: nearly all actives have a fitted effect of over 45% in size; further: potency means the concentration at half of the fitted maximal effect
Outline: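 Cells: HCT-116 with p53 response element-driven beta-lactamase. Treatment: 16 h, 37 C, compounds in DMSO. Read: CellTiter-Glo luminescence after 30 min RT.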

[2] = molecular target: Muscarinic acetylcholine receptor M1 (Homo sapiens) (UniProt P11229); assay: Cholinergic receptor muscarinic 1 (CHRM1) small molecule antagonists, cell-based qHTS assay (AID 1963588); settings: CHRM1-CHO antagonist mode, calcium flux fluorescence; further: nearly all actives have a fitted effect of over 40% in size
Outline: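 CHRM1-CHO calcium-flux assay, antagonist mode. Cells were seeded 18 h, dye-loaded 1 h at 37 C and given compound for 5 min at RT, then acetylcholine was added at 50nM. FDSS fluorescence was read 3 min; 15 concentrations, three runs.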

[3] = molecular target: Beta-2 adrenergic receptor (Homo sapiens) (UniProt P07550); assay: Adrenergic beta2 receptor (ADRB2) small molecule antagonists, cell-based qHTS assay (AID 1963592); settings: CHO-ADRB2 cells, isoproterenol-stimulated cAMP HTRF ratio, 0.5 h; at 92.4 µM (top of the series) unless noted; further: nearly all actives have a fitted effect of over 50% in size
Outline: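 Cells (CHO, stable ADRB2 overexpression) incubated 18-20hr at 37C; compounds added from DMSO; agonist mix (1nM isoproterenol, 100uM IBMX, 25uM Ro-20-1724) added; 0.5hr RT; d2-cAMP and anti-cAMP-cryptate added; 1hr RT; 665/615 nm read.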

[4] = p53 small molecule agonists, cell-based qHTS assay with human liver microsomes (AID 1963577);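 further: p53 response element beta-lactamase reporter cells with liver microsomes plus NADPH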
Outline: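 Reporter activation was measured by LiveBLAzer fluorescence intensity in p53RE-bla cells, which had been exposed to compounds for 16 h at 37 C alongside 0.5 mg/mL human liver microsomes and 0.5 mg/mL NADPH (final concentrations).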

[5] = cAMP Responsive Elements (CRE) small molecule agonists, cell-based qHTS assay (AID 1963590); settings: CRE-bla HEK293T, beta-lactamase FRET ratio, 3 h; at 92.4 µM (top of the series) unless noted
Outline: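 Agonist mode qHTS in CRE-bla HEK 293T cells: compounds dosed from DMSO for 3 h at 37 C/5% CO2, followed by LiveBLAzer B/G FRET substrate for 2 h at room temperature.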
On the % scale 0 is the no-effect control and ±100 the full control effect.

Row | SMILES | Potency [1] | activity, negative = inhibition ([2]; at 61.5 µM (top of the series)) | activity change, negative = inhibition [3] | Potency [4] | activation [5] | activation [4] | activity change, negative = cytotoxicity [1] | activity, negative = inhibition ([2]; at 12.6 µM (top of the series))
1 | CCCCCCCCCCCCCC[P+](CCCCCC)(CCCCCC)CCCCCC | active: 11.5 µM | inactive: 11.6% | inactive: 0.96% | – | – | – | – | –
2 | CC(C)CCCCCCCOP(OCCCCCCCC(C)C)Oc1ccccc1 | inactive | inactive: 22.4% | inactive: 5.43% | inactive | inactive: -2.89% | – | – | –
3 | CCCCC(CC)CO[P+](=O)OCC(CC)CCCC (configuration not stated) | inactive | inactive: 12.4% | inactive: -0.274% | inactive | inactive: 0.475% | – | – | –
4 | CCC(C)(OOC(C)(C)C)OOC(C)(C)C | – | – | inactive: -7.73% [at 19 µM] | – | inactive: -0.691% [at 19 µM] | inactive: -2.19% [at 13.5 µM] | inactive: 2.41% [at 13.5 µM] | inactive: 13.8%
5 | COC(=O)Cl | – | inactive: 2.56% | inactive: 0.277% | inactive | inactive: 4.27% | – | – | –
